Experimental data reported in paper PMC6422423, “Constitutively active BRS3 is a genuinely orphan GPCR in placental mammals” (PLoS Biology, 2019).

Protein sequences, listed by entry. Tags and fused reporters are not part of them.
UniProt P28336, whole entry, species assumed: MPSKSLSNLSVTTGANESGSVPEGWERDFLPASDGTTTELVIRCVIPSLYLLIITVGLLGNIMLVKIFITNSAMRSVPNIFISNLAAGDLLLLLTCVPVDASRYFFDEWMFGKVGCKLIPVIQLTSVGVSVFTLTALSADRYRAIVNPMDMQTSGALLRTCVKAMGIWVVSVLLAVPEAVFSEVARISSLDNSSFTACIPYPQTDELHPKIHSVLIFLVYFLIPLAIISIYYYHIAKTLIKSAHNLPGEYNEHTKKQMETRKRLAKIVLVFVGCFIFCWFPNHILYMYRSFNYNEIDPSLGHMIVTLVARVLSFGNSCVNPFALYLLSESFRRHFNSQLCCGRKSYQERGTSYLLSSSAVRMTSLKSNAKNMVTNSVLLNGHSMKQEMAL

Assays:
spotted gar BRS3 (sBRS3) = test: Intracellular calcium assay (WT and mutants); type: cell-based, Lepisosteus oculatus; settings: 10 nM peptide, HEK293, Fluo8, sBRS3
Method: (§1) Intracellular calcium was measured using the non-wash calcium assay Fluo8 kit (ab112129, Abcam) according to the manufacturer’s instructions. Briefly, HEK293 cells were seeded in 24-well plates and were transfected with GRPR, NMBR, BRS3, or the empty vector plasmid pcDNA3.1-V5-His (300 ng) and incubated overnight at 37°C with 5% CO2. The next day, the cells were replated into a 96-well assay plate (black plate and clear bottom). After 12 h, growth media were aspirated, and calcium dye was added. Following incubation for 30 min at 37°C and 10 min at room temperature, GRP (10 nM) or NMB (10 nM) was added, and assay plates were placed into a fluorescence kinetic plate reader (Hamamatsu) immediately. The basal fluorescence intensity was recorded 15 times at 1 Hz for […]. The results were normalized to the average basal fluorescence intensity in ratio, and the peak response was used for the result calculation. Calcium fold was calculated using no stimulation data as standard value.

chicken BRS3 (cBRS3) = test: Intracellular calcium assay (WT and mutants); type: cell-based, Gallus gallus; settings: 10 nM peptide, HEK293, Fluo8, cBRS3
Method: as §1

aardvark BRS3 (aBRS3) = test: Intracellular calcium assay (WT and mutants); type: cell-based, Orycteropus afer; settings: 10 nM peptide, HEK293, Fluo8, aBRS3
Method: as §1

mouse BRS3 (mBRS3) = test: Intracellular calcium assay (WT and mutants); type: cell-based; settings: 10 nM peptide, HEK293, Fluo8, mBRS3
Method: as §1

human BRS3 (hBRS3) = test: Intracellular calcium assay (WT and mutants); type: cell-based; settings: 10 nM peptide, HEK293, Fluo8, hBRS3
Method: as §1

turtle BRS3 (tBRS3) = test: Intracellular calcium assay (WT and mutants); type: cell-based, Chrysemys picta; settings: 10 nM peptide, HEK293, Fluo8, tBRS3
Method: as §1

NMBR = molecular target: T1, NMBR (Homo sapiens, UniProt P28336); test: Intracellular calcium assay; type: cell-based; settings: 10 nM peptide, HEK293, Fluo8, NMBR
T1 construct: HA; expressed in transfected cells; host or cells: HEK293
Method: as §1

In the case of neuromedin B [NMB], the Calcium fold (spotted gar BRS3 (sBRS3); replicate 1) is reported as 3.5144 fold, the Calcium fold (spotted gar BRS3 (sBRS3); replicate 2) is reported as 3.9449 fold and the Calcium fold (spotted gar BRS3 (sBRS3); replicate 3) is reported as 4.3608 fold. The Calcium fold (chicken BRS3 (cBRS3); replicate 1) was 3.3988 fold, the Calcium fold (chicken BRS3 (cBRS3); replicate 2) was 3.5333 fold and the Calcium fold (chicken BRS3 (cBRS3); replicate 3) was 3.9569 fold. For the same substance, the Calcium fold (aardvark BRS3 (aBRS3); replicate 1) was 1.1428 fold, the Calcium fold (aardvark BRS3 (aBRS3); replicate 2) was 1.1171 fold and the Calcium fold (aardvark BRS3 (aBRS3); replicate 3) was 1.219 fold. The Calcium fold (mouse BRS3 (mBRS3); replicate 1) was 1.1267 fold, the Calcium fold (mouse BRS3 (mBRS3); replicate 2) was 1.2985 fold and the Calcium fold (mouse BRS3 (mBRS3); replicate 3) was 0.9236 fold. It also gave a Calcium fold (human BRS3 (hBRS3); replicate 1) of 1.1617 fold, a Calcium fold (human BRS3 (hBRS3); replicate 2) of 1.0053 fold and a Calcium fold (human BRS3 (hBRS3); replicate 3) of 0.9127 fold. For the same substance, the Calcium fold (turtle BRS3 (tBRS3); replicate 1) was 3.2567 fold, the Calcium fold (turtle BRS3 (tBRS3); replicate 2) was 3.7937 fold and the Calcium fold (turtle BRS3 (tBRS3); replicate 3) was 3.7127 fold. The Calcium fold (NMBR; replicate 1) was 3.5176 fold, the Calcium fold (NMBR; replicate 2) was 3.9647 fold and the Calcium fold (NMBR; replicate 3) was 4.173 fold.
